Measurements: ChEMBL document CHEMBL2086370 (J Med Chem, 2012)

Amino acid sequences for entries named in this document (tags omitted). A change or cut given only in a name is not applied to a line headed by its entry.
UniProt P41146: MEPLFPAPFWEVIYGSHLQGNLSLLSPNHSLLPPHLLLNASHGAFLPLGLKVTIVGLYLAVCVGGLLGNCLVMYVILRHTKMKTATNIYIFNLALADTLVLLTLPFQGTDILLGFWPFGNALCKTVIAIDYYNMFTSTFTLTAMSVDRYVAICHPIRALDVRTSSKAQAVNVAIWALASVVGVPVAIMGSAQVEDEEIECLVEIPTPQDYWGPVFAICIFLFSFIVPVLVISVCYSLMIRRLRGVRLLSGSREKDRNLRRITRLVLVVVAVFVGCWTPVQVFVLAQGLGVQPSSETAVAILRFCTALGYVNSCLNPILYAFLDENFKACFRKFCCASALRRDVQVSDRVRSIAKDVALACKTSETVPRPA

System: Rattus norvegicus
Experiment: In vivo receptor occupancy of NOP receptor in po dosed Harlan Sprague-Dawley rat hypothalamus co-administered with unlabeled tracer compound at 3 ug/kg, iv
Assay type: functional

**Q.** With `Cc1cccc2c1CC[C@H](CN1CCC(c3c(Cl)cccc3Cl)CC1)C[C@@H]2O` as the molecule, how does the Activity read?
**A.** Dose-dependent effect

Biological target: Nociceptin receptor (Homo sapiens) (UniProt P41146)
Experiment: Agonist activity at human cloned NOP receptor expressed in CHO cell membranes after 30 mins by [35S]GTPgammaS binding assay relative to nociceptin

**Q.** How did the Efficacy turn out when `COC(=O)CN1CN(c2ccccc2)C2(CCN(Cc3cccc4ccccc34)CC2)C1=O` was run?
**A.** 103%

Biological target: Nociceptin receptor (Homo sapiens) (UniProt P41146)
Experiment: Antagonist at against human cloned NOP receptor expressed in CHO cell membranes after 30 mins by [35S]GTPgammaS binding assay

**Q.** With `CN(C)C(=O)C(Cc1ccccc1Cl)CN1CCC2(CC1)OCCc1cc(F)sc12` (single isomer, unassigned; (+)) as the molecule, how does the Kb read?
**A.** 0.161 nM

**Q.** With `CN(C(=O)C(Cc1ccccc1Cl)CN1CCC2(CC1)OCCc1cc(F)sc12)C1CC1` (single isomer, unassigned; (-)) as the molecule, how does the Kb read?
**A.** 0.251 nM

**Q.** Which Kb does the source give for `CN(C)C(=O)C(Cc1ccccc1Cl)CN1CCC2(CC1)OCCc1cc(Cl)sc12.O=C(O)C(O)C(O)C(=O)O` (single isomer, unassigned; (-)) here?
**A.** 0.543 nM

**Q.** With `COc1ccccc1CC(CN1CCC2(CC1)OCCc1ccsc12)C(=O)N(C)C` (stereo not drawn) as the molecule, how does the Kb read?
**A.** > 10 nM

**Q.** For `CN(C)C(=O)C(Cc1c(F)cccc1F)CN1CCC2(CC1)OCCc1ccsc12` (racemic), which Kb is on record?
**A.** > 10 nM

**Q.** With `CN(C)C(=O)C(Cc1ccccc1F)CN1CCC2(CC1)OCCc1ccsc12` (racemic) as the molecule, how does the Kb read?
**A.** 1.71 nM

**Q.** How did the Kb turn out when `ClCC(Cc1ccccc1Cl)CN1CCC2(CC1)OCCc1ccsc12` (stereo not drawn) was run?
**A.** > 40 nM

**Q.** `CN(C)C(=O)C(Cc1ccccc1)CN1CCC2(CC1)OCCc1ccsc12` (stereo not drawn) was tested. Which Kb did it give?
**A.** 4.12 nM

**Q.** For `CN(C)C(=O)C(Cc1cscn1)CN1CCC2(CC1)OCc1ccc(F)cc12` (stereo not drawn), which Kb is on record?
**A.** 1.22 nM

**Q.** `NC(=O)C(Cc1ccccc1Cl)CN1CCC2(CC1)OCCc1cc(Cl)sc12` (stereo not drawn) was tested. Which Kb did it give?
**A.** 0.167 nM

**Q.** Which Kb does the source give for `N#CC(Cc1ccccc1Cl)CN1CCC2(CC1)OCCc1ccsc12` (stereo not drawn) here?
**A.** > 40 nM

**Q.** With `COCC(Cc1ccccc1Cl)CN1CCC2(CC1)OCCc1ccsc12` (stereo not drawn) as the molecule, how does the Kb read?
**A.** > 40 nM

**Q.** How did the Kb turn out when `CN(C)C(=O)C(Cc1ccccc1F)CN1CCC2(CC1)OCCc1cc(F)sc12` (stereo not drawn) was run?
**A.** 0.698 nM

**Q.** `CNC(=O)C(Cc1ccccc1F)CN1CCC2(CC1)OCCc1cc(Cl)sc12` (single isomer, unassigned; (-)) was tested. Which Kb did it give?
**A.** 0.288 nM

**Q.** For `CN(C(=O)C(Cc1ccccc1F)CN1CCC2(CC1)OCCc1cc(F)sc12)C1CC1` (single isomer, unassigned; (-)), which Kb is on record?
**A.** 0.085 nM

**Q.** `CN(C)C(=O)[C@@H](Cc1ccccc1F)CN1CCC2(CC1)OCCc1cc(F)sc12.O=C(O)C(O)C(O)C(=O)O` was tested. Which Kb did it give?
**A.** 0.305 nM

**Q.** Which Kb does the source give for `CN(C)C(=O)C(CN1CCC2(CC1)OCCc1cc(F)sc12)Cn1cccn1.O=C(O)C(O)C(O)C(=O)O` (single isomer, unassigned; (+)) here?
**A.** 0.225 nM

**Q.** With `FCC(Cc1ccccc1Cl)CN1CCC2(CC1)OCCc1ccsc12` (stereo not drawn) as the molecule, how does the Kb read?
**A.** > 10 nM

**Q.** How did the Kb turn out when `CN(C)C(=O)C(Cc1ccccn1)CN1CCC2(CC1)OCCc1ccsc12` (stereo not drawn) was run?
**A.** > 10 nM

**Q.** With `CNC(=O)C(Cc1ccccc1Cl)CN1CCC2(CC1)OCCc1cc(Cl)sc12` (stereo not drawn) as the molecule, how does the Kb read?
**A.** 0.412 nM

**Q.** For `CN(C)C(=O)C(Cc1ccccc1F)CN1CCC2(CC1)OCCc1cc(Cl)sc12.O=C(O)C(O)C(O)C(=O)O` (single isomer, unassigned; (+)), which Kb is on record?
**A.** 0.239 nM
